Source: patent publication US3956398A, “Bis-monoperoxyacetals and -ketals” (dated 1976)
Several values for one entry are separate records, joined by “and”; a condition that tells them apart may be missing. Equal values may be shown once.

SMILES: CC(OOC(C)(C)C)OC(C)OOC(C)(C)C (centres unmarked)
- Curing Half-Life (320°F.) (320°F., amount of peroxide used differs by line (1.26-2.74 parts)): 4.1 min
- Curing Half-Life, 330°F. half-life (330°F., amount of peroxide used differs by line (4.2-6.4 parts)): 2.1 min and 1.4 min
